Measured values from US20260242320A1, “USE OF CANNABIDIOL DERIVATIVE IN PREPARATION OF MEDICAMENT” (priority 2023, published 2026).

Chains of the proteins cited; added tags and fusions are not shown.
UniProt P34972, whole entry: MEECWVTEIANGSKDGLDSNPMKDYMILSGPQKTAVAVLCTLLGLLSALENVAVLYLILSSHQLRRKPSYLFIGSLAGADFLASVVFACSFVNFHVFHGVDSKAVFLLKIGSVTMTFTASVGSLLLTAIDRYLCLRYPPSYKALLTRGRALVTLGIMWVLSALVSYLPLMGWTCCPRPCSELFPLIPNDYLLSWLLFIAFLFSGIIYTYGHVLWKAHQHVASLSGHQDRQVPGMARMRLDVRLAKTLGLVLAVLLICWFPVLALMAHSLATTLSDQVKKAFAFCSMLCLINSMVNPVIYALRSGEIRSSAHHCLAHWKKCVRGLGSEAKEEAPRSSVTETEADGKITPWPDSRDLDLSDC

Target: T1, CB2 Receptor (Homo sapiens, UniProt P34972)
T1 construct: expressed in transfected cells; host or cells: GloSensor 22-F HEK293 cells
Assay: cAMP measurement, forskolin-induced cAMP accumulation, CB2
Assay type: cell-based
Method: GloSensor 22-F HEK293 cells were transfected with plasmids encoding different receptors (CB1 and CB2). After 24 h, HEK293 cells were seeded at a density of 5×10^4 cells per well in 96-well plates and incubated for 8 h; then, the medium was removed, and 200 μL of serum-free DMEM medium containing 2% GloSensor cAMP substrate (Promega) was added. After 2 h incubation, the transfected cells were stimulated with different concentrations of ligands together with […]. The luminescence was recorded using a Multimode Plate Reader (En Vision, PerkinElmer).

C=C(C)[C@@H]1CCC(C)=C[C@H]1c1c(O)cc(CCCCC)cc1O [CBD, (1′R,2′R)-5′-Methyl-4-pentyl-2′-(prop-1-en-2-yl)-1′,2′,3′,4′-tetra-hydro-[1,1′-biphenyl]-2,6-diol, reference compound]
EC50: 3.5 nM
